# Results reported in ChEMBL document CHEMBL4706639, “Discovery of Novel Azetidine Amides as Potent Small-Molecule STAT3 Inhibitors” (J Med Chem, 2021).
# Chains of the proteins cited; added tags and fusions are not shown.
# UniProt P42227, whole entry: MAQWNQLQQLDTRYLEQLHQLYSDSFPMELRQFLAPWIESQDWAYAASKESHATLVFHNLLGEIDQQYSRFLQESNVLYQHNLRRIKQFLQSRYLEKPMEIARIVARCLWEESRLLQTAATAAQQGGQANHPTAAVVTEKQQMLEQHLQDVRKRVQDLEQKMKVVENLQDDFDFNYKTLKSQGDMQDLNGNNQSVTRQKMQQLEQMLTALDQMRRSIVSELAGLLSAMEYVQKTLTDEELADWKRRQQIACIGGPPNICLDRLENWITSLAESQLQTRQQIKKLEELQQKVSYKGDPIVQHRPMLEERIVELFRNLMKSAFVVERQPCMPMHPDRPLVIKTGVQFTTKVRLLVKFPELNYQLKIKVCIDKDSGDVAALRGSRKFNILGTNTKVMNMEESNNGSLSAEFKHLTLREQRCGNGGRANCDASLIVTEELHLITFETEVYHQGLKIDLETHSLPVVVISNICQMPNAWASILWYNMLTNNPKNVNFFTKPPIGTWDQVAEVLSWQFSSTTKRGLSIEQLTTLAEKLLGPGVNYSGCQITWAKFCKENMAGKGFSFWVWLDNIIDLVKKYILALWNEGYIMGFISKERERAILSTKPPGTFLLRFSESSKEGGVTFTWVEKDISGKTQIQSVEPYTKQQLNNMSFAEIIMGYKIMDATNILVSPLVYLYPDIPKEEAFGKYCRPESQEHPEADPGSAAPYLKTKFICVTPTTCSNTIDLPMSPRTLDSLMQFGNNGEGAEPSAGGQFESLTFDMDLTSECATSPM
# UniProt P40763, whole entry: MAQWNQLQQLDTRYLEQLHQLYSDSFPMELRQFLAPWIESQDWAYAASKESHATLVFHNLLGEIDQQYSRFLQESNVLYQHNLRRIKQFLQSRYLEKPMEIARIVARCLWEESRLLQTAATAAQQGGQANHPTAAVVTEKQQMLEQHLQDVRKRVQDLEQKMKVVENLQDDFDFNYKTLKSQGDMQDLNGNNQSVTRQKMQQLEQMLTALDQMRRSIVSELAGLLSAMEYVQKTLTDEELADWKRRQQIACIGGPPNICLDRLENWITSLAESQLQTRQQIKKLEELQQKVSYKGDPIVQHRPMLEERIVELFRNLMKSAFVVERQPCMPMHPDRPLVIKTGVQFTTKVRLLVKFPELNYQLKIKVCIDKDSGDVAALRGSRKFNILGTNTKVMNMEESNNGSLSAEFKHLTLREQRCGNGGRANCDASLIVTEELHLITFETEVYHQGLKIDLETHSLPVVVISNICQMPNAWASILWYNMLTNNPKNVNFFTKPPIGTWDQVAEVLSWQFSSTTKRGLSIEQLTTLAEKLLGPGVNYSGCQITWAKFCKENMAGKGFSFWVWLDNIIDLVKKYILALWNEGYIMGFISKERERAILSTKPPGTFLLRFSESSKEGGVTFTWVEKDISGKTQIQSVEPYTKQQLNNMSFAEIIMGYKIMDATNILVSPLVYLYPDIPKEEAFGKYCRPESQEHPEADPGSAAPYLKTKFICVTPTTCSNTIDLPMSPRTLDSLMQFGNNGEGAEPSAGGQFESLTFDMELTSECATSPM
# pEC50, pIC50: −log10 of the molar value.
# Key:
# [1] = target: Signal transducer and activator of transcription 3 (Mus musculus, UniProt P42227); assay: Inhibition of oligonucleotide [32P]-labelled 5'-AGCITCATTTCCCGTAAATCCCTA probe binding to STAT3 SH2 domain in mouse NIH3T3/v-Src nuclear extract preincubated for 30 mins followed by hSIE probe addition by EMSA analysis; assay type: subcellular, Nucleus
# [2] = system: MDA-MB-231; assay: Antiproliferative activity against human MDA-MB-231 cells assessed as reduction in cell viability incubated for 72 hrs by CyQuant assay; assay type: functional, cell-based; conditions: MDA-MB-231, 72 h
# [3] = target: Signal transducer and activator of transcription 3 (Homo sapiens) (UniProt P40763); assay: Binding affinity to STAT3 (unknown origin) assessed as change in enthalpy by isothermal titration calorimetry
smiles,measurement,setting,value
O=C(O)c1ccc(N(Cc2cnc(C3CCCCC3)cn2)C(=O)[C@H]2CCN2S(=O)(=O)c2c(F)c(F)c(F)c(F)c2F)c(F)c1,pIC50,[1],5.76
O=C1OCc2cc(N(Cc3ccc(C4CCCCC4)cn3)C(=O)[C@H]3CCN3S(=O)(=O)c3c(F)c(F)c(F)c(F)c3F)ccc21,pEC50,[2],6.05
same,deltaH,[3],-5.43 kcal/mol
